Results on 6 compounds are retold here after patent US20230000870A1, “METHODS OF TREATING CANCER IN BIOMARKER-IDENTIFIED PATIENTS WITH INHIBITORS OF CYCLIN-DEPENDENT KINASE 7 (CDK7)” (Syros Pharmaceuticals, Inc., priority 2019, published 2023).

Chains of the proteins cited; added tags and fusions are not shown. Residues count along the entry.
UniProt Q9NYV4, 686-1082 limits assumed: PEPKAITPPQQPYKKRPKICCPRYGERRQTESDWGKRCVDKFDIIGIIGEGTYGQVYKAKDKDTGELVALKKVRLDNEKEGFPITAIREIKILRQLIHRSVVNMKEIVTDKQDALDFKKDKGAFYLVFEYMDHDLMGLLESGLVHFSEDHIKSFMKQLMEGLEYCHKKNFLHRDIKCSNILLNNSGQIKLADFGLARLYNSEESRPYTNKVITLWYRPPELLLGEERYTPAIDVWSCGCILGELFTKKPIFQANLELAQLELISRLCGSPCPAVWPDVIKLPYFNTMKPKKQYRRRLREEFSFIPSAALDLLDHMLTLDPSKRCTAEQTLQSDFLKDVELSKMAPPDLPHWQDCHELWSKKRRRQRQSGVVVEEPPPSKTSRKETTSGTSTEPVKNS
UniProt P50613, whole entry: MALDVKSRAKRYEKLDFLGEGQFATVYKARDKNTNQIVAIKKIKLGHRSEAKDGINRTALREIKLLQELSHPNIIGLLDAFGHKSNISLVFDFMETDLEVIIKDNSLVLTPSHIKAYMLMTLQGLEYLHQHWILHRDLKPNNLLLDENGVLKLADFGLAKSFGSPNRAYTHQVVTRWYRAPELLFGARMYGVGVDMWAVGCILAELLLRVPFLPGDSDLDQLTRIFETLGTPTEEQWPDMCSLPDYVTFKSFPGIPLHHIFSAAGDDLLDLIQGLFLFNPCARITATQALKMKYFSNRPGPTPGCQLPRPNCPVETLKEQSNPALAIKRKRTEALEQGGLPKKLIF
UniProt P50750, whole entry: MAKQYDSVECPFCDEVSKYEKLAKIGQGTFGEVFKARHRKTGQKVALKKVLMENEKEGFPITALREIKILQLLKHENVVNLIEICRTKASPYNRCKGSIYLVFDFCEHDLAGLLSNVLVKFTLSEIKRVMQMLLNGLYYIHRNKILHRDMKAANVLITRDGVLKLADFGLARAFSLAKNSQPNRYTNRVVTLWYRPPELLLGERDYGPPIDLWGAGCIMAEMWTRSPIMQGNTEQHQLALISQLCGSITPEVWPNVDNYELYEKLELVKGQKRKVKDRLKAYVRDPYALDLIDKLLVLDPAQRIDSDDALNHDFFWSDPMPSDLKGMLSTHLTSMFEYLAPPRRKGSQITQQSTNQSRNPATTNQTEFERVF
UniProt O60563, whole entry partner: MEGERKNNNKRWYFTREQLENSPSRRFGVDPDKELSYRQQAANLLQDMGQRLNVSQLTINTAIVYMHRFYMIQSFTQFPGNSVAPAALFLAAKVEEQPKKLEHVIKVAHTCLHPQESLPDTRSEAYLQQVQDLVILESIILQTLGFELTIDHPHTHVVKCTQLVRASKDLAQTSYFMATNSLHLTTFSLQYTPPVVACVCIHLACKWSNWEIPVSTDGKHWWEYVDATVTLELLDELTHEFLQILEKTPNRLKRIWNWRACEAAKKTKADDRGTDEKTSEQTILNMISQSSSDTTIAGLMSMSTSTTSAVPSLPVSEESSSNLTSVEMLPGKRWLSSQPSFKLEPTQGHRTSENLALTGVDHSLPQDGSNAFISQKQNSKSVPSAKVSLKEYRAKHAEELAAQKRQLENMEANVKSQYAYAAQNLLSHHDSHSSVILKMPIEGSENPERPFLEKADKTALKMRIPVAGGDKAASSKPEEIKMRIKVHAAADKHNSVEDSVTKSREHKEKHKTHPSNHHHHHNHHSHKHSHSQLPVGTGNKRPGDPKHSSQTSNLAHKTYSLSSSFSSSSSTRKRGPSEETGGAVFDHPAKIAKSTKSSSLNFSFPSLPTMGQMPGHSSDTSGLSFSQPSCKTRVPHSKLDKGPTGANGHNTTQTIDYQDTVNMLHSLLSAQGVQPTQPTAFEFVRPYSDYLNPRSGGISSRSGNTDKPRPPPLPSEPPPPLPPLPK
UniProt P51946, whole entry partner: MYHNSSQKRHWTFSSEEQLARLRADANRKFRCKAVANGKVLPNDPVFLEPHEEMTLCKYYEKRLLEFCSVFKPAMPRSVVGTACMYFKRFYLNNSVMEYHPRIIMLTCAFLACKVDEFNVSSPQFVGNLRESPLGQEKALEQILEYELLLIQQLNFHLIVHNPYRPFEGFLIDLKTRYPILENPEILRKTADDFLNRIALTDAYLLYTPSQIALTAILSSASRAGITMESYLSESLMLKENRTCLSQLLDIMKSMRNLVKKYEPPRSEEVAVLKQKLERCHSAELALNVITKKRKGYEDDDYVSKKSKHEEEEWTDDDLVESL
UniProt O75909, whole entry partner: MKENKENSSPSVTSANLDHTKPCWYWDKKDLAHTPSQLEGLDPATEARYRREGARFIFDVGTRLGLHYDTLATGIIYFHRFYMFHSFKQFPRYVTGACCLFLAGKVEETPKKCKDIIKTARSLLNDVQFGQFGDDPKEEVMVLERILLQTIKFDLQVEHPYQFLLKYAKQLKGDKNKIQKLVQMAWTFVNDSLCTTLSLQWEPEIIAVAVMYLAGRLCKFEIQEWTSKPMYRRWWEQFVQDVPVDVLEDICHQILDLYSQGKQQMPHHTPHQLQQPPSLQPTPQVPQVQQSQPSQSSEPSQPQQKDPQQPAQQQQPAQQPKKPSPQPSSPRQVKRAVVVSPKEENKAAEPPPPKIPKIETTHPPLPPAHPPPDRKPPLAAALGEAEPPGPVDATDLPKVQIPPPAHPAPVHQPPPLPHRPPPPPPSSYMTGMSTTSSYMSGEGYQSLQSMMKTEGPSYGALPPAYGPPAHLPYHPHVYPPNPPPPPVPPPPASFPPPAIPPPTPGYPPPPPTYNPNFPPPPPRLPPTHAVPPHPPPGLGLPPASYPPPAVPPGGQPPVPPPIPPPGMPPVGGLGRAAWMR
UniProt P51948, whole entry partner: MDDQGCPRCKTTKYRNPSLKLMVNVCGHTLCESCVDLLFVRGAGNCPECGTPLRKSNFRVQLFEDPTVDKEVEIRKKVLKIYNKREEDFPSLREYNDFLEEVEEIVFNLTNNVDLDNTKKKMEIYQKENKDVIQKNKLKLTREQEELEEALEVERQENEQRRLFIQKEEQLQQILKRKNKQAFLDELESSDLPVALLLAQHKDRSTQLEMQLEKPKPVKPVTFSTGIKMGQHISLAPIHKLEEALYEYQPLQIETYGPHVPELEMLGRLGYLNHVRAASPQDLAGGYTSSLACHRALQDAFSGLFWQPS

The test system of one assay is A673 cells. As to the kind of experiment: Inhibition of proliferation of A673 cells (CyQUANT, 72 hour). Particulars: read-out: Inhibition of Proliferation of A673 Cells (calculated IC50).
The target of a further assay is CDK2/Cyclin E1 complex (Homo sapiens, UniProt P24941). Description: CDK2 kinase inhibition assay (Caliper/LabChip EZ Reader). Type of assay: biochemical. Conditions: read-out: CDK2 IC50; CDK2/Cyclin E1 0.5 nM, ATP 2 mM, 35 min at 27° C.
Assay [1] deals with CDK12 (aa686-1082)/Cyclin K complex (Homo sapiens, UniProt Q9NYV4). Description: CDK12 kinase inhibition assay (Caliper/LabChip EZ Reader). Type of assay: biochemical. Conditions: read-out: CDK12 IC50; CDK12 (aa686-1082)/Cyclin K 50 nM, ATP 2 mM, 3 hr at 27° C.
For assay [2], the target named is CDK7/Cyclin H/MAT1 complex (Homo sapiens, UniProt P50613). As to the kind of experiment: CDK7 kinase inhibition assay (Caliper/LabChip EZ Reader). It counts as biochemical. Particulars: read-out: CDK7 IC50; CDK7/Cyclin H/MAT1 6 nM, ATP 2 mM, 35 min at 27° C.
The next assay concerns the target CDK9/Cyclin T1 complex (Homo sapiens, UniProt P50750). As to the kind of experiment: CDK9 kinase inhibition assay (Caliper/LabChip EZ Reader). It counts as biochemical. Conditions: read-out: CDK9 IC50; CDK9/Cyclin T1 8 nM, ATP 2 mM, 15 min at 27° C.
For another assay, the system named is HCC70 cells. Description: Inhibition of proliferation of HCC70 cells (CyQUANT Direct, 72 hour). Conditions: read-out: Inhibition of Proliferation of HCC70 Cells (calculated IC50).

For `CNC(=O)[C@H]1CNC[C@H](Nc2ncc(C(F)(F)F)c(-c3c[nH]c4ccccc34)n2)C1`, the IC50 with A673 cells is 0.02 to 0.2 µM; on CDK2/Cyclin E1 complex, 0.2 to 5 µM; in assay [1] it was 0.2 to 5 µM; in assay [2] it was less than 0.02 µM; on CDK9/Cyclin T1 complex it was 0.2 to 5 µM.

As to `C=CC(=O)N1CCC(CO[C@H]2CNC[C@@H](Nc3ncc(C(F)(F)F)c(-c4c[nH]c5c(S(C)(=O)=O)cccc45)n3)C2)CC1`, the IC50 with A673 cells was less than 0.02 µM; on CDK2/Cyclin E1 complex, greater than 5 µM; in assay [1] it was 0.2 to 5 µM; in assay [2], 0.02 to 0.2 µM; in the assay on HCC70 cells it was 0.1 to 1 µM; on CDK9/Cyclin T1 complex, greater than 5 µM.

On to `FC(F)(F)c1cnc(N[C@H]2CCC3(CCCCC3)NC2)nc1-c1c[nH]c2ccccc12`, for which the IC50 on CDK2/Cyclin E1 complex was in the range of 0.2 to 5 µM; in assay [1], 0.2 to 5 µM; in assay [2], 0.02 to 0.2 µM; at CDK9/Cyclin T1 complex, 0.2 to 5 µM.

For the compound `FC(F)(F)c1cnc(N[C@H]2CCCNC2)nc1-c1c[nH]c2cc(-c3ccc4c[nH]nc4c3)ccc12`, the IC50 was 0.2 to 5 µM in assay [1], 0.02 to 0.2 µM in assay [2] and 0.1 to 1 µM in the assay with HCC70 cells.

As to `Cc1noc(C2CCC(Nc3ncc(C(F)(F)F)c(-c4c[nH]c5cc(C#N)ccc45)n3)CN2)n1` (stereo not drawn), the IC50 was greater than 5 µM at CDK2/Cyclin E1 complex; greater than 5 µM in assay [1]; 0.02 to 0.2 µM in assay [2]; 0.1 to 1 µM in the assay on HCC70 cells; greater than 5 µM at CDK9/Cyclin T1 complex.

For `CCC(=O)N[C@H]1CNC[C@@H](Nc2ncc(C(F)(F)F)c(-c3c[nH]c4c(S(C)(=O)=O)cccc34)n2)C1`, the IC50 at CDK2/Cyclin E1 complex was greater than 5 µM; in assay [1] it was greater than 5 µM; in assay [2] it was 0.2 to 5 µM; at CDK9/Cyclin T1 complex, greater than 5 µM.
